Assay results reported in EP4830731A1, “TUMOR MICROENVIRONMENT-ACTIVATED DRUG CONJUGATE AND ANTIBODY-DRUG CONJUGATE” (dated 2026).

Assays:
CT26 cells = experiment: CT26 tumor model, S5 alone and with CTLA-4 antibody; settings: CT26 in BALB/c mice; tail vein, three weeks; CTLA-4 5mg/kg twice a week; TMEA-TRL7/8 1.785 µmol/kg once a week
Procedure: • 1. Animals: BALB/c mice, 8-week-old females (Shanghai Lingchang Biotechnology Co., Ltd.). • 2. Cells: Cell Bank of Chinese Academy of Sciences. Cells were cultured in RPMI Medium 1640 (1x) medium containing 10% fetal bovine serum at 37°C in 5% CO2, passaged every 3 days, and cells within 15 passages were used. • 3. Tumor induction: 0.3×10^6 CT26 cells were subcutaneously injected into the back of BALB/c mice. When the tumor grew to about 160 mm^3, the mice were randomly grouped and treatment was started. • 4. Treatment process: CTLA-4 was administered twice a week, and TMEA-TRL7/8 was administered once a week, for three weeks, by tail vein administration.

[1] = Aqueous solution stability (HPLC); settings: content relative to 0 hour by HPLC, 0.2 µmol/mL in DMSO/water, water bath 25 °C / 37 °C
Procedure: Each drug conjugate compound was accurately weighed and dissolved in a certain amount of DMSO to prepare a stock solution at a concentration of 10 µmol/mL. Then, 10 µL of the stock solution was added to 80 µL of DMSO to dilute to a concentration of 1 µmol/mL, and then further diluted with pure water at a ratio of 1:4 to achieve a sample solution concentration of 0.2 µmol/mL. After the sample became clear, it was placed in a water bath at 25 °C / 37 °C. Samples were taken at 0 hour and 24 hours and analyzed by HPLC (Agilent 1260, column: Eclipse Plus C18, 4.6×250 mm, 5 µm; mobile phase A: 0.1% TFA + H2O; mobile phase B: CH3CN; flow rate: 1.0 mL/min; column temperature: 30 °C; detection wavelength: 214 nm) to determine the content of the drug conjugate relative to that at 0 hour, thereby obtaining the solution stability data of the different compounds.

[2] = Human plasma stability (HPLC); settings: 37 °C
Procedure: An appropriate amount of sample was weighed and dissolved in DMSO to prepare a 1 mM solution. Human plasma was added at a volume ratio of 1:9, and the mixture was incubated in an incubator at 37 °C. Aliquots were taken at 0, 2, 4, 6, and 24 hours, and DMSO/MeOH (1:1) was added at a volume ratio of 1:3 to remove proteins. The mixture was centrifuged at 12000 rpm for 5 minutes, and the supernatant was collected. The HPLC analysis was performed using the method described above (Agilent 1260, column: Eclipse Plus C18, 4.6 * 250 mm, 5 µm; mobile phase A: 0.1% TFA + H2O; mobile phase B: CH3CN; flow rate: 1.0 mL/min; column temperature: 30 °C; detection wavelength: 214 nm).

[3] = tested on: acidified CT-26 tumor tissue homogenate; experiment: Activation and release of drug in tumor tissue homogenate, time course; settings: CT-26 tumor tissue homogenate pH 5.0, 37°C; S5 releases T785, S16 releases Dxd
Procedure: A certain amount of the drug conjugates (S5, S16, Deruxtecan, Control Compound Y; wherein Control Compound Y is compound S1 in CN103011521B) were weighed, dissolved, and diluted tenfold to a concentration of 0.1 mmol/ml. The drug conjugates were added at a concentration of 1 mg/ml to 100 µg of acidified CT-26 tumor tissue homogenate (pH 5.0) at 37°C. The enzymes in the tumor tissue homogenate were able to release the drug, and the released drug was detected by HPLC to compare the activation efficiency of the linker in the tumor tissue.

[4] = tested on: acidified CT-26 tumor tissue homogenate; experiment: Enzymatic cleavage (activation) in tumor tissue homogenate; settings: acidified CT-26 tumor tissue homogenate pH 5.0, 37°C, released drug by HPLC
Procedure: A certain amount of the drug conjugates were weighed, dissolved, and diluted tenfold to a concentration of 0.1 mM/ml. The drug conjugates were added at a concentration of 1 mg/ml to 100 µg of acidified CT-26 tumor tissue homogenate (pH 5.0) at 37°C. The enzymes in the tumor tissue homogenate were able to release the drug, and the released drug was detected by HPLC to compare the activation efficiency of the linker in the tumor tissue.

Row | SMILES | TGI (%) on day 27 (CT26 cells) | Tumor volume on day 27 (CT26 cells) | Aqueous solution stability % (24 h) [1] | Plasma stability % (24 h) [2] | time at which release of drug started [3] | Enzymatic cleavage efficiency % (2 h) [4]
1 | CCCCc1nc2c(N)nc3ccccc3c2n1CCCCNC(=O)[C@H](CC(N)=O)NC(=O)[C@H](C)NC(=O)[C@H](C)NC(=O)CCCCCN1C(=O)C=CC1=O | 80.33% | 604.86 mm^3 | 100% | 99% | 5 min | 95%
2 | CCOCc1nc2c(NC(=O)[C@H](CC(N)=O)NC(=O)[C@H](C)NC(=O)[C@H](C)NC(=O)CCCCCN3C(=O)C=CC3=O)nc3ccccc3c2n1CC(C)(C)O |  |  | 95% | 80% |  | 91%
